How the values were obtained:
[1] = target: T1, human growth hormone secretagogue receptor type 1a (hGHSR1A) (Homo sapiens, UniProt Q92847); assay: Fluo-4 fluorescence calcium response in hGHSR1a cells (VIPR); format: cell-based; conditions: 100 nM ghrelin, no BAPTA
[2] = target: T1, human growth hormone secretagogue receptor type 1a (hGHSR1A); assay: Aequorin luminescence in hGHSR1A cells (WALLAC MICROBETA JET); format: cell-based; conditions: 100 nM ghrelin, no BAPTA

Amino acid sequences for entries named in this document (tags omitted).
UniProt Q92847, whole entry: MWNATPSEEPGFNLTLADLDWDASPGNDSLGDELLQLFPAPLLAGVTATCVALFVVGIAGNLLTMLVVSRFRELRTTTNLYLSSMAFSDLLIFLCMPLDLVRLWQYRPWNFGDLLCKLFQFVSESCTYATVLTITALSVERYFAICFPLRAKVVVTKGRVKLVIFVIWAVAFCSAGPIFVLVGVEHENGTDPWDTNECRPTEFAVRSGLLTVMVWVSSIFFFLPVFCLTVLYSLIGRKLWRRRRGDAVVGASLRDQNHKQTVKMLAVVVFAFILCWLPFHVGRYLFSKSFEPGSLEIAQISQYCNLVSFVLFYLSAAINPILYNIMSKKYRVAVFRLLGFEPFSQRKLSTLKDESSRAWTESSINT

time to complete decay to baseline [1]: about 100 seconds
time to maximum fluorescence [1]: about 15 sec
time to peak light emission [2]: 3 s
time until light emission essentially gone [2]: 30 s
Substance: ghrelin

— patent US6514709B1 (dated 2003)
